For this data set, the system named is O=[N+]([O-])c1ccc(OP(=O)(O)O)cc1. Nature of the data set: purified protein. The following applies: 37 °C, 40 mM Tris pH 8, 150 mM NaCl, 10 mM DTT, 1% Tween, 1 μM enzyme, 3-hour reaction.

One may read the Km as the concentration of substrate that gives half-maximal velocity. The kcat is the maximal rate divided by the concentration of active sites.

Take “VpsU (Vibrio cholerae O1 biovar El Tor str. N16961)”: the Km came to 900 ± 100 µM and the kcat was determined as 0.0233 ± 0.0017 s⁻¹.

For the origin of these results see publication PMC7485978, “A tyrosine phosphoregulatory system controls exopolysaccharide biosynthesis and biofilm formation in Vibrio cholerae” (PLoS Pathogens, 2020).
